Results: ChEMBL document CHEMBL1135171, “Discovery of potent and selective small molecule NPY Y5 receptor antagonists” (Bioorg Med Chem Lett, 2002)

Chains of the proteins cited; added tags and fusions are not shown.
UniProt P25929, whole entry: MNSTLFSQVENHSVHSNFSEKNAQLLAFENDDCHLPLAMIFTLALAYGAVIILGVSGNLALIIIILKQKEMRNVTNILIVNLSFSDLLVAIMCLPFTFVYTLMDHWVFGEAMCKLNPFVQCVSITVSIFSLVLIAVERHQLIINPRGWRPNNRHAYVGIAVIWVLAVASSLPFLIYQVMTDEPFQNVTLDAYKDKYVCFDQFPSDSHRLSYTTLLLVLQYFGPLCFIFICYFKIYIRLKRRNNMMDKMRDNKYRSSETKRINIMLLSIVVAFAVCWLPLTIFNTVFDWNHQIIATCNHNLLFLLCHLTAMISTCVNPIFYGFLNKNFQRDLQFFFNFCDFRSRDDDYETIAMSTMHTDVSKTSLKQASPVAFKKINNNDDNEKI

How the values were obtained:
[1] = target: Neuropeptide Y receptor type 1 (Homo sapiens, UniProt P25929); experiment: Tested for radioligand binding affinity against membranes from COS-7 cells transiently transfected with Neuropeptide Y receptor type 1; assay type: cell membranes
[2] = target: T1, Neuropeptide Y receptor type 5 (Homo sapiens, UniProt Q15761); experiment: Tested for radioligand binding affinity against membranes from COS-7 cells transiently transfected with Neuropeptide Y receptor type 5; assay type: cell membranes
T1 sequence (Q15761 whole entry): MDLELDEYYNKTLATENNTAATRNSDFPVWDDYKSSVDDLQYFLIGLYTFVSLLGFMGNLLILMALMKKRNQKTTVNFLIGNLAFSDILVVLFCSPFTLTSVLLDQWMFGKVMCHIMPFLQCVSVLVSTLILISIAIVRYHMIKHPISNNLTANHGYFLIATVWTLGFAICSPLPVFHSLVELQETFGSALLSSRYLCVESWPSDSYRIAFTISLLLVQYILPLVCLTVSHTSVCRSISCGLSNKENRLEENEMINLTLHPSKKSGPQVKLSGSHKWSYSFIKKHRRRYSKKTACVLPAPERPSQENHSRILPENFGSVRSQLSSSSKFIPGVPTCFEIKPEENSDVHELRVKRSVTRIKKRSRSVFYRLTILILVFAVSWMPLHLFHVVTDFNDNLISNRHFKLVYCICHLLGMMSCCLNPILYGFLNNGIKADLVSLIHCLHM

O=S(=O)(NC[C@H]1CC[C@H](CNC(CO)Cc2ccc(Cl)cc2)CC1)c1cccc2ccccc12 (some centres not stated)
pKi [1]: 5.49
pKi [2]: 7.77

pKi: −log10 of the molar value.
